The other results are listed elsewhere or left out.
These compounds were tested on A. baumannii ATCC 17978 (assay: relative growth (fraction of control); higher = less inhibition). Details: 50 µM.
For O=C([O-])c1ccccc1-c1c2cc(I)c(=O)c(I)c-2oc2c(I)c([O-])c(I)cc12.[Na+].[Na+], the relative growth was 1.04.
CC(C)C(=O)Nc1cccc(Cl)c1 showed a relative growth of 0.878.
O=C(CN1CCOCC1)N[C@@H]1CC[C@@H](CCNC(=O)C2CCCCC2)O[C@@H]1CO gave a relative growth of 1.01.
Cc1nccn1CCc1nc(N)nc(N)n1 showed a relative growth of 1.04.
C=CCOC(=O)[C@@H]1[C@H]2C(=O)O[C@H](c3ccccc3)[C@H](c3ccccc3)N2[C@H](c2ccc(OCCOC(=O)[C@H]3C[C@H]4C(=O)N[C@@H](CCCC[N+](C)(C)C)C(=O)N4[C@H]3c3ccc(O)cc3)cc2)[C@@]12C(=O)Nc1ccc(I)cc12 gave a relative growth of 1.22.
COCCNC(=O)C[C@H]1CC[C@H]2[C@@H](COC[C@H](O)CN2S(=O)(=O)c2ccccc2C)O1 was tested, and the relative growth was 0.841.
O=C(OC[C@H]1O[C@@H](OC(=O)c2cc(O)c(O)c(OC(=O)c3cc(O)c(O)c(O)c3)c2)[C@H](OC(=O)c2cc(O)c(O)c(OC(=O)c3cc(O)c(O)c(O)c3)c2)[C@@H](OC(=O)c2cc(O)c(O)c(OC(=O)c3cc(O)c(O)c(O)c3)c2)[C@@H]1OC(=O)c1cc(O)c(O)c(OC(=O)c2cc(O)c(O)c(O)c2)c1)c1cc(O)c(O)c(OC(=O)c2cc(O)c(O)c(O)c2)c1 gave a relative growth of 1.08.
With C[C@H](CO)N1C[C@H](C)[C@@H](CN(C)C(=O)Cc2ccccn2)Oc2cc(C#C[C@@H](C)O)ccc2S1(=O)=O the relative growth was 0.941.
COc1cccc(S(=O)(=O)N2C[C@@H](O)COC[C@H]3O[C@@H](CC(=O)N4CCN(C)CC4)CC[C@@H]32)c1 gave a relative growth of 0.986.
COCC(=O)Nc1ccc2c(c1)[C@@H]1C[C@H](CC(=O)N3CCOCC3)O[C@H](CO)[C@@H]1O2 gave a relative growth of 1.1.
Work on COCCNC(=O)c1cn(C)nc1OC yielded a relative growth of 1.09.
Work on NS(=O)(=O)c1ccc(NC(=O)C2CC2)cc1 yielded a relative growth of 0.83.
COCC(=O)N(C)C[C@H]1Oc2cc(C#Cc3ccccc3)ccc2S(=O)(=O)N([C@@H](C)CO)C[C@@H]1C gave a relative growth of 0.835.
In the case of CC1(C)S[C@@H]2[C@H](NC(=O)[C@H](N)c3ccc(O)cc3)C(=O)N2[C@H]1C(=O)O, the relative growth is reported as 1.08.
CO[C@H]1CN(C)C(=O)c2cc(NS(C)(=O)=O)ccc2OC[C@@H](C)N(C(=O)C2CCCCC2)C[C@H]1C showed a relative growth of 1.01.
With CC(C)=CCC/C(C)=C/CC1=C(C)C(=O)c2ccccc2C1=O the relative growth was 0.926.
Work on C=C1C(=O)O[C@@H]2[C@H]3C(=CO[C@@H]4O[C@H](CO)[C@@H](O)[C@H](O)[C@H]4O)CC(=O)C3=C(C)CC[C@@H]12 yielded a relative growth of 1.02.
Cl.Cl.NCCCCN gave a relative growth of 1.03.
NCc1ccc(-c2nc3ccccc3o2)cc1 gave a relative growth of 0.844.
Work on CC(C)(C)OC(=O)N[C@H]1CCC(=O)NC1=O yielded a relative growth of 0.995.
O=C(C[C@@H]1CC[C@H](NS(=O)(=O)c2ccccc2)[C@@H](CO)O1)NCc1ccncn1 gave a relative growth of 1.03.
Work on Cn1nc(C(=O)O)c2ccccc2c1=O yielded a relative growth of 1.03.
Work on CO[C@H]1CN(C)C(=O)c2ccc(NC(=O)Nc3cccc(Cl)c3)cc2OC[C@@H](C)N(C(=O)Nc2c(C)noc2C)C[C@H]1C yielded a relative growth of 0.93.
C[C@]1(C(=O)NCCN2CCOCC2)c2ccccc2C(=O)N(Cc2cc(C(F)(F)F)cc(C(F)(F)F)c2)[C@H]1c1ccc(CO)cc1 gave a relative growth of 0.967.
Work on COc1ccc(S(=O)(=O)N2C[C@H](O)COC[C@H]3O[C@H](CC(=O)NCCCN4CCOCC4)CC[C@@H]32)cc1 yielded a relative growth of 1.05.
Work on CC1(C)CO[C@@H](CC(=O)O)CN1 yielded a relative growth of 0.85.
COc1cccc(S(=O)(=O)N2C[C@H](O)COC[C@H]3O[C@H](CC(=O)NCCCN4CCOCC4)CC[C@@H]32)c1 gave a relative growth of 0.951.
For Cc1cc(Cl)cc2sc(N(Cc3ccccn3)C(=O)c3ccc(S(=O)(=O)N4CCCC4)cc3)nc12, the relative growth was 1.08.
With CC(C)Cn1c(=O)[nH]c2c1c(=O)n(C)c(=O)n2C the relative growth was 0.892.
In the case of O=C(C[C@H]1C=C[C@H](NC(=O)C2CC2)[C@@H](CO)O1)NCCCN1CCOCC1, the relative growth is reported as 0.971.
Cc1ccc2c(Br)cc(Br)c(OC(=O)c3ccccc3)c2n1 showed a relative growth of 1.42.
Compound Cc1cccc(C(=O)O)c1O has a relative growth of 1.06.
For CNS(=O)(=O)c1ccc2[nH]c(=O)[nH]c2c1, the relative growth was 0.896.
Compound CC(C)n1c(/C=C/[C@@H](O)C[C@@H](O)CC(=O)[O-])c(-c2ccc(F)cc2)c2ccccc21.[Na+] has a relative growth of 1.05.
With CCCCCCCCCc1ccc(OCCOCCOCCOCCOCCOCCOCCOCCOCCO)cc1 the relative growth was 0.895.
CC(C)c1ccc2oc3nc(N)c(C(=O)O)cc3c(=O)c2c1 showed a relative growth of 1.03.
Cc1cccc(=O)n1CCCCN was tested, and the relative growth was 1.01.
Work on Cc1ccc(S(=O)(=O)N[C@@H]2CC[C@@H](CCNC(=O)CN3CCOCC3)O[C@H]2CO)cc1 yielded a relative growth of 1.16.
Compound COc1ccc(N2CCn3c2nnc(C(=O)NCCO)c3=O)cc1 has a relative growth of 0.94.
Compound COC(=O)Nc1nc2cc(C(=O)c3ccccc3)ccc2[nH]1 has a relative growth of 0.999.
For C[C@H](CO)N1C[C@H](C)[C@@H](CN(C)C(=O)c2ccc(N3CCN(C)CC3)cc2)OCc2cnnn2CCCC1=O, the relative growth was 0.981.
Work on COCC(=O)Nc1ccc2c(c1)C(=O)N(C)[C@@H]1CC[C@@H](CC(=O)NCc3ccc(OC)cc3)O[C@@H]1CO2 yielded a relative growth of 0.967.
In the case of COc1cccc(C#Cc2ccc3c(c2)O[C@@H](CN(C)C(=O)CN2CCOCC2)[C@H](C)CN([C@H](C)CO)S3(=O)=O)c1, the relative growth is reported as 0.795.
With Cc1cnc2c(c1N1CCOCC1)c(=O)n(C)c(=O)n2C the relative growth was 1.02.
Compound CC(N)CCCC(C)(C)O.Cl (configuration not stated) has a relative growth of 0.886.
Work on CCCCCCc1ccc(O)cc1O.Nc1c2ccccc2nc2ccccc12 yielded a relative growth of 0.835.
Compound CC(C)C[C@@H]1NC(=O)[C@@H]2C[C@H](C(=O)NCCCC[N+](C)(C)C)[C@H](c3cccc(OCCO)c3)N2C1=O has a relative growth of 1.1.
Work on Cc1cc2c(cc1S(N)(=O)=O)S(=O)(=O)CCC2 yielded a relative growth of 1.04.
For COc1ccc(COC[C@]23NC(=O)N[C@H](c4ccccc4O2)[C@H]3COC(=O)NCCCCCC(=O)NO)cc1, the relative growth was 1.12.
In the case of C/C=C\C1=C(C(=O)O)N2C(=O)[C@H](NC(=O)[C@@H](N)c3ccc(O)cc3)[C@@H]2SC1, the relative growth is reported as 0.9.
O=C(C[C@H]1CC[C@H]2[C@@H](COC[C@@H](O)CN2S(=O)(=O)c2ccc(Cl)cc2)O1)NCCN1CCCCC1 showed a relative growth of 0.889.
With O=C(C[C@H]1C=C[C@H](NC(=O)CN2CCOCC2)[C@H](CO)O1)NC1CCCCC1 the relative growth was 0.986.

Source: published antibiotic growth screens (doi:10.1038/s41589-023-01349-8)
